As a reminder, the pIC50 is −log10 of the IC50, conventionally taken in molar units. A higher pIC50 goes with a small IC50.

This note sets out measurements from publication PMC3794980, “Identification of Conserved and HLA Promiscuous DENV3 T-Cell Epitopes” (PLoS Neglected Tropical Diseases, 2013).

pIC50: −log10 of the molar value. Read-outs that look alike come from different tables or passages of the source.

Some targets named below: DRB1*0301 (Homo sapiens, UniProt P01903+P01911, A100K/A102G/A103R/A169T/F55Y/I96L/K41T/L162R/M171V/P40S/Q125H/Q178H/Q39Y/R42S/S66N/T106N/T262R/W38E/Y61H); DRB1*0405 (Homo sapiens, UniProt P01903+P01911, A100R/A169T/D86S/F76Y/I96L/K127E/L162R/M171V/N62H/P40V/Q125Y/R42H/S133A/S149N/S66Y/V115G/V209L/W38E); DRB1*1302 (Homo sapiens, UniProt P01903+P01911, A100E/A169T/K41T/L162R/M171V/P40S/Q125H/Q178H/Q39Y/Q99D/R42S/S66N/T262R/V115G/W38E/Y61H); DRB1*1501 (Homo sapiens, UniProt P01903+P01911); DRB1*0901 (Homo sapiens, UniProt P01903+P01911, A100R/A103E/D57H/D86V/F55Y/F60I/F76Y/I96F/K127E/L162R/M171V/P40D/Q125H/Q99R/R33Q/R42F/S133A/S66N/T210M/V115G/W38K/Y107V/Y59G/Y89S); DRB1*0701 (Homo sapiens, UniProt P01903+P01911, A100R/A102G/A103Q/D57E/D86V/E43K/F76Y/K127E/L162R/M171V/P40G/Q125H/Q99D/R33Q/R42Y/R54Q/S133A/S66F/T210M/V115G/Y107V/Y59L/Y89S); DRB1*1101 (Homo sapiens, UniProt P01903+P01911, A100R/A169T/A87E/I96F/K41T/L162R/M171V/P40S/Q125H/Q178H/Q39Y/Q99D/R42S/S66Y/T262R/V115G/W38E); DRB1*0404 (Homo sapiens, UniProt P01903+P01911, A100R/A169T/F76Y/I96L/K127E/L162R/M171V/N62H/P40V/Q125Y/R42H/S133A/S149N/S66Y/V209L/W38E); DRB1*0802 (Homo sapiens, UniProt P01903+P01911, A100R/A103L/A169T/F76Y/H45Y/I96F/K41T/L162R/M171V/P40S/Q125H/Q178H/Q39Y/Q99D/R218S/R42G/S66Y/V115G/W38E).

Common to all, as to test: biochemical
What all share (type): binding

With `CC[C@H](C)[C@H](NC(=O)[C@H](CC(C)C)NC(=O)[C@H](CCC(=O)O)NC(=O)[C@H](Cc1c[nH]cn1)NC(=O)[C@H](Cc1ccccc1)NC(=O)[C@H](Cc1c[nH]cn1)NC(=O)[C@H](Cc1c[nH]cn1)NC(=O)[C@H](CO)NC(=O)[C@H](CS)NC(=O)[C@H](Cc1ccccc1)NC(=O)[C@@H]1CCCN1C(=O)[C@@H](NC(=O)[C@H](CCC(N)=O)NC(=O)[C@H](CCC(N)=O)NC(=O)[C@H](Cc1c[nH]c2ccccc12)NC(=O)[C@@H](N)CC(=O)O)C(C)C)C(=O)N[C@@H](CCSC)C(=O)O` [NS5 702-718], the pIC50 against DRB1*0301 was 5.50; at DRB1*0405 it was 5.71; on DRB1*1302, 5.40; against DRB1*1501 it was 5.89; at DRB1*0901, 5.85.

With `CC[C@H](C)[C@H](NC(=O)[C@H](CCC(N)=O)NC(=O)[C@@H](N)CCCCN)C(=O)N[C@@H](C)C(=O)N[C@@H](CC(N)=O)C(=O)N[C@@H](CCC(=O)O)C(=O)N[C@@H](CC(C)C)C(=O)N[C@@H](CC(N)=O)C(=O)N[C@@H](Cc1ccc(O)cc1)C(=O)N[C@H](C(=O)N[C@@H](CC(C)C)C(=O)N[C@@H](Cc1c[nH]c2ccccc12)C(=O)N[C@@H](CCC(=O)O)C(=O)N[C@@H](CC(N)=O)C(=O)N[C@@H](CC(N)=O)C(=O)O)[C@@H](C)CC` [NS1 69-83], the pIC50 against DRB1*0701 was 5.35; against DRB1*1101 it was 4.72; against DRB1*0901 it was 5.62.

Take `CC[C@H](C)[C@H](NC(=O)[C@H](CO)NC(=O)[C@H](C)N)C(=O)N[C@@H](C)C(=O)N[C@@H](C)C(=O)N[C@@H](CCCNC(=N)N)C(=O)NCC(=O)N[C@@H](Cc1ccc(O)cc1)C(=O)N[C@H](C(=O)N[C@@H](CO)C(=O)N[C@H](C(=O)N[C@@H](CCCNC(=N)N)C(=O)N[C@H](C(=O)NCC(=O)N[C@@H](CCSC)C(=O)O)C(C)C)[C@@H](C)O)[C@@H](C)CC` [NS3 293-307]: the pIC50 was 4.92 against DRB1*0301, 5.97 on DRB1*0404 and 5.09 against DRB1*0802.

In the case of `CC[C@H](C)[C@H](NC(=O)[C@H](C)NC(=O)[C@H](CCSC)NC(=O)[C@H](CCCNC(=N)N)NC(=O)[C@H](CCCCN)NC(=O)[C@H](CC(C)C)NC(=O)[C@H](CCCNC(=N)N)NC(=O)[C@H](CCC(=O)O)NC(=O)[C@@H](N)C(C)C)C(=O)N[C@@H](CO)C(=O)NCC(=O)N[C@@H](CC(=O)O)C(=O)N[C@@H](CC(=O)O)C(=O)N[C@@H](CS)C(=O)N[C@H](C(=O)N[C@H](C(=O)N[C@@H](CCCCN)C(=O)O)C(C)C)C(C)C` [NS5 652-668], the negative logarithm of the IC50 (pIC50) was 6.47 against DRB1*0301, 5.85 at DRB1*0802, 6.25 at DRB1*1501 and 5.90 on DRB1*0901.

Turning to `CSCC[C@H](NC(=O)[C@H](CCSC)NC(=O)[C@H](CC(N)=O)NC(=O)[C@H](Cc1ccc(O)cc1)NC(=O)[C@@H](NC(=O)[C@H](CS)NC(=O)[C@H](CO)NC(=O)CN)C(C)C)C(=O)NCC(=O)N[C@@H](CCCCN)C(=O)N[C@@H](CCCNC(=N)N)C(=O)N[C@@H](CCC(=O)O)C(=O)N[C@@H](CCCCN)C(=O)N[C@@H](CCCCN)C(=O)N[C@@H](CC(C)C)C(=O)NCC(=O)N[C@@H](CCC(=O)O)C(=O)O` [NS5 447-463], the pIC50 on DRB1*0301 was 5.90; against DRB1*0802, 6.39; against DRB1*0405, 5.86; against DRB1*0701, 5.54; against DRB1*1302, 5.26; at DRB1*1501, 5.90. The compound also gave a pIC50 against DRB1*0901 of 5.58.

For `CSCC[C@H](NC(=O)[C@H](C)NC(=O)[C@H](CCSC)NC(=O)[C@H](CCC(N)=O)NC(=O)[C@@H](NC(=O)[C@@H](NC(=O)[C@@H](N)CCSC)C(C)C)[C@@H](C)O)C(=O)N[C@H](C(=O)N[C@@H](CC(=O)O)C(=O)N[C@H](C(=O)N[C@H](C(=O)N1CCC[C@H]1C(=O)N[C@@H](Cc1ccccc1)C(=O)NCC(=O)N[C@@H](CCC(N)=O)C(=O)N[C@@H](CCC(N)=O)C(=O)N[C@@H](CCCNC(=N)N)C(=O)O)[C@@H](C)O)[C@@H](C)O)[C@@H](C)O` [NS5 336-352], the pIC50 against DRB1*0802 is 6.92; on DRB1*1101 it was 5.50; at DRB1*1501 it was 5.66.

In the case of `CC[C@H](C)[C@H](NC(=O)[C@H](CS)NC(=O)[C@H](Cc1ccccc1)NC(=O)[C@H](CCC(N)=O)NC(=O)[C@@H](N)CC(N)=O)C(=O)N[C@@H](CCCCN)C(=O)N[C@H](C(=O)N[C@@H](CC(C)C)C(=O)N[C@@H](CC(N)=O)C(=O)N1CCC[C@H]1C(=O)N[C@@H](Cc1ccc(O)cc1)C(=O)N[C@@H](CCSC)C(=O)N1CCC[C@H]1C(=O)N[C@H](C(=O)N[C@H](C(=O)N[C@H](C(=O)N[C@@H](CCC(=O)O)C(=O)O)[C@@H](C)CC)C(C)C)[C@@H](C)O)C(C)C` [NS5 175-191], the negative-log IC50 (pIC50) at DRB1*0301 is 5.68; against DRB1*0802 it was 4.79; on DRB1*0701, 5.16; against DRB1*1101, 5.21; against DRB1*1302 it was 5.08; at DRB1*0901, 5.23.

For `CC[C@H](C)[C@H](NC(=O)[C@H](CC(C)C)NC(=O)[C@H](CO)NC(=O)[C@H](C)NC(=O)[C@H](CCCCN)NC(=O)[C@H](CCC(=O)O)NC(=O)[C@H](CC(C)C)NC(=O)[C@H](CCCCN)NC(=O)[C@H](Cc1c[nH]c2ccccc12)NC(=O)[C@@H](N)CO)C(=O)N[C@@H](CCC(=O)O)C(=O)N[C@H](C(=O)N[C@@H](CCCCN)C(=O)N[C@H](C(=O)N[C@@H](CS)C(=O)O)[C@@H](C)O)C(C)C` [NS1 209-223], the pIC50 was 5.59 at DRB1*0301; 5.38 against DRB1*0802; 5.36 against DRB1*0405; 6.42 at DRB1*0701; 5.42 at DRB1*1302; 5.46 against DRB1*1501.

Consider `CC[C@H](C)[C@H](NC(=O)[C@H](CCCNC(=N)N)NC(=O)[C@H](CCCCN)NC(=O)[C@@H](NC(=O)[C@H](CCCNC(=N)N)NC(=O)[C@H](CCC(=O)O)NC(=O)CNC(=O)[C@@H](NC(=O)[C@@H](NC(=O)[C@H](CC(=O)O)NC(=O)[C@H](CCSC)NC(=O)[C@H](CC(N)=O)NC(=O)[C@@H]1CCCN1C(=O)[C@@H](NC(=O)[C@H](CCC(=O)O)NC(=O)[C@@H]1CCCN1)[C@@H](C)O)C(C)C)[C@@H](C)CC)[C@@H](C)CC)C(=O)N[C@@H](CCCCN)C(=O)O` [NS5 268-284], for which the negative logarithm of the IC50 (pIC50) on DRB1*0701 was 6.00; at DRB1*1302, 6.47; against DRB1*1501, 5.74; against DRB1*0901, 5.08.

`CC[C@H](C)[C@H](N)C(=O)N[C@@H](CC(=O)O)C(=O)N[C@@H](CC(=O)O)C(=O)N[C@@H](CCCNC(=N)N)C(=O)N[C@@H](Cc1ccccc1)C(=O)N[C@@H](C)C(=O)N[C@@H](CC(N)=O)C(=O)N[C@@H](C)C(=O)N[C@@H](CC(C)C)C(=O)N[C@@H](CC(C)C)C(=O)N[C@@H](C)C(=O)N[C@@H](CC(C)C)C(=O)N[C@@H](CC(N)=O)C(=O)N[C@@H](CC(=O)O)C(=O)N[C@@H](CCSC)C(=O)NCC(=O)N[C@@H](CCCCN)C(=O)O` [NS5 670-686]: the pIC50 is 5.07 against DRB1*0301 and 5.65 against DRB1*0701. The IC50 worked out at 2080 nM at DRB1*1302 (competitive inhibition of radiolabeled standard peptide, DRB1*1302, read-out: Binding Affinity (nM) DRB1*1302) and 1990 nM on DRB1*0901 (competitive inhibition of radiolabeled standard peptide, DRB1*0901, read-out: Binding Affinity (nM) DRB1*0901).

For `CC(C)C[C@H](N)C(=O)N[C@H](C(=O)N[C@@H](Cc1ccc(O)cc1)C(=O)N[C@@H](CCC(N)=O)C(=O)N[C@@H](CC(N)=O)C(=O)N[C@@H](CCCCN)C(=O)N[C@H](C(=O)N[C@H](C(=O)N[C@@H](CCCCN)C(=O)N[C@H](C(=O)N[C@@H](CCC(N)=O)C(=O)N[C@@H](CCCNC(=N)N)C(=O)N1CCC[C@H]1C(=O)N[C@H](C(=O)N1CCC[C@H]1C(=O)N[C@@H](CCCCN)C(=O)NCC(=O)O)[C@@H](C)O)C(C)C)C(C)C)C(C)C)[C@@H](C)O` [NS5 570-586], the pIC50 against DRB1*0301 was 5.59; on DRB1*0404 it was 5.91; at DRB1*0802, 5.91; at DRB1*0901 it was 5.87.

Turning to `CC[C@H](C)[C@H](NC(=O)[C@@H](N)CCCCN)C(=O)N1CCC[C@H]1C(=O)NCC(=O)NCC(=O)N[C@@H](C)C(=O)N[C@@H](CCSC)C(=O)N[C@@H](Cc1ccc(O)cc1)C(=O)N[C@@H](C)C(=O)N[C@@H](CC(=O)O)C(=O)N[C@@H](CC(=O)O)C(=O)N[C@H](C(=O)N[C@@H](C)C(=O)NCC(=O)N[C@@H](Cc1c[nH]c2ccccc12)C(=O)N[C@@H](CC(=O)O)C(=O)N[C@H](C(=O)O)[C@@H](C)O)[C@@H](C)O` [NS5 523-539], the pIC50 against DRB1*1101 is 6.77.
